{
  "source": "paper PMC8646516",
  "about": "(CPT: Pharmacometrics & Systems Pharmacology, 2021)",
  "origin": "cited, not measured here",
  "settings": "cited from earlier work",
  "data": [
    {"substance": "lopinavir/ritonavir", "values": [
      {"measurement": "Total exposure increase in patients with COVID-19 compared with non-COVID-19 patients", "result": "2–5 fold"},
      {"measurement": "Unbound concentrations in COVID-19 compared to patients with HIV", "result": "unaltered"}
    ]}
  ]
}
